Experiment: Pharmacokinetic drug-drug interaction study in rats after oral administration
Type: in vivo, SD (Sprague-Dawley) rats
Settings: rat plasma, TEL 4 mg/kg oral, alone
Description: SPF (specific pathogen free)-grade male SD (Sprague-Dawley) rats (weight: 230 ± 10 g) were purchased from Beijing Weitong Lihua Experimental Animal Technology Co. Ltd. (Beijing, China). Before starting the experiment, the rats were given sufficient food and water and kept under suitable conditions for one week. Suitable conditions included suitable temperature (23–27 °C), suitable humidity (50 ± 10%), and 12-h light–12-h dark diurnal cycle. All animals were fasted for 12 h before the start of the experiment, but they were allowed to drink water freely. All the animal experimental protocols were conducted in accordance with the UK Animals (Scientific Procedures) Act 1986 and under the guideline approved by the Ethics Committee of Hebei General Hospital (Shijiazhuang, China; No. 2021131).
Twenty-four healthy rats were randomly and equally divided into four groups (six animals in each group). […] Approximately 0.3 mL of blood was collected from the orbital venous plexus in a heparinized centrifuge tube from each rat at 0.25, 0.5, 1, 2, 3, 4, 6, 8, 10, 12, 24, 48, 72, and 96 h after administration. […]
The main pharmacokinetic parameters are presented as mean ± standard deviation and statistically analyzed using SPSS 25.0 software package (SPSS Inc., Chicago, IL, USA). […]

CCCc1nc2c(C)cc(-c3nc4ccccc4n3C)cc2n1Cc1ccc(-c2ccccc2C(=O)O)cc1 [TEL, Telmisartan] gave a Vz of 13.49 ± 3.97 L/kg.

From PMC8880132 (Molecules, 2022)
